Measurements: ChEMBL document CHEMBL1127235, “1,1-diphenyl-3-dialkylamino-1-silacyclopentane derivatives: A new class of potent and selective 5-HT2A antagonists” (Bioorg Med Chem Lett, 1994)

By UniProt entry, the sequences of proteins in these tests, tags left out.
UniProt P14842, whole entry: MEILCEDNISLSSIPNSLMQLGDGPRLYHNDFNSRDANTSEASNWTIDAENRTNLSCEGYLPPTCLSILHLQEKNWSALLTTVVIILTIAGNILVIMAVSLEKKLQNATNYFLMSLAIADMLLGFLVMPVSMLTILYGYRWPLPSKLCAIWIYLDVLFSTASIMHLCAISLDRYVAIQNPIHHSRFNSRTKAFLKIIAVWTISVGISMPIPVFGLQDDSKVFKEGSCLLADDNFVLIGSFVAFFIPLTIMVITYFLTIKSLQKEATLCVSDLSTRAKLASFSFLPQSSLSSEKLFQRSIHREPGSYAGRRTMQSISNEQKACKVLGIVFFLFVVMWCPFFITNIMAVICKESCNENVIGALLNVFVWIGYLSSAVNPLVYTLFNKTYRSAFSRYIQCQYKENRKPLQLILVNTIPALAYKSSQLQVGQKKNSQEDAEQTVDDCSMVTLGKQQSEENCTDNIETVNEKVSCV

Biological target: 5-hydroxytryptamine receptor 2A (Rattus norvegicus, UniProt P14842)
Experiment: In vitro binding affinity towards serotonin 5-HT2A receptor in rat cortical membranes using [3H]ketanserin as radioligand
Assay type: cell membranes

`Cc1nc2sccn2c(=O)c1CCN1CCC(=C(c2ccc(F)cc2)c2ccc(F)cc2)CC1` [RITANSERIN] showed an IC50 of 1.7 nM.
